# Several values for one entry are separate records, joined by “and”; a condition that tells them apart may be missing. Equal values may be shown once.
# How the values were obtained:
# [1] = test system: Human breast cancer cells SK-BR-3; assay: In vitro anti-proliferation test in human-derived tumor cells (CellTiter Glo, 120 h), SK-BR-3; assay type: cell-based; details: SK-BR-3, 120 h; for Highest inhibition rate %: highest ADC concentration 1 μM; for IC50: read-out: Absolute IC50
# [2] = test system: NCI-N87 subcutaneous xenograft; assay: In vivo anti-tumor efficacy assay, NCI-N87 subcutaneous xenograft nude mice model; design: species or system BALB/c nude mice; details: 10 mg/kg, tail vein, once
# [3] = test system: gastric cancer cells NCI-N87; assay: In vitro anti-proliferation test in human-derived tumor cells (CellTiter Glo, 120 h), NCI-N87; assay type: cell-based; details: NCI-N87, 120 h, highest ADC concentration 1 μM
Substance,Highest inhibition rate % [1],IC50 [1],Tumor Growth Inhibition TGI (%) [2],Highest inhibition rate % [3],Highest inhibition rate % ([1]; 1 µM)
Trastuzumab ADC I-1-a,92.53%,8 nM,111%,–,–
Trastuzumab ADC I-3-a,91.74%,6 nM,–,–,–
Trastuzumab ADC I-12-a,–,–,–,93.77% and 92.17%,92.52% and 99.60%

# Reference: patent US20240358848A1, “ANTITUMOR COMPOUND AND USE THEREOF” (priority 2021, published 2024)
